## Measured affinities in a library of Ab-14 heavy chain variants

The measurements come from Li et al. 2023 (doi:10.1038/s41467-023-39022-2) through the FLAb antibody collection.

All variants were tested on one target, the spike HR2 peptide PDVDLGDISGINAS (SARS-CoV-2).

Parent scFv Ab-14: VH joined to VL by a (GGGGS)3 linker. Changes lie in the heavy chain CDRs alone.
VH: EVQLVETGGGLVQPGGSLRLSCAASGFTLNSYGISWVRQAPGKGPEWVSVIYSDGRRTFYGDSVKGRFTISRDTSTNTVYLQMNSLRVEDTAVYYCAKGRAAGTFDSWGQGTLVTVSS
VL: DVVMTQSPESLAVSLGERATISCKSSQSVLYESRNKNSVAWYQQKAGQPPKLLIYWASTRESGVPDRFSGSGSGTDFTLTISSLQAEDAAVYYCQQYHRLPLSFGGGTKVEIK

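The parent was found by panning a naive human phage display library on the peptide. The variants were designed computationally from a first round of random CDR variants and then made and measured. Group labels follow the data file (Rand: our label for a block that the file lists under HC and that is probably the random mutants of the ten best first-round binders; En: ensemble of fine-tuned language models; HC: hill climbing; Gen: genetic algorithm; Gibbs: Gibbs sampling; a sequence that several methods proposed may carry one label only). The assay is AlphaSeq: two haploid yeast populations carry antibody and antigen on their surface. After mating in shaken culture at 30 °C for 16 h, diploids were selected and their barcode pairs sequenced. Each replicate has its own calibration line, from reference interactions of the BCL2 family. There are six technical replicates.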

Sequences are complete VH domains. Variants here have more than six changes. Kd is apparent (estimated from mating counts) and averaged on the log scale over replicates with a signal. Smaller is tighter. An entry "nd" has no value in the source: the pair was not observed among the diploids in any replicate. This suggests poor binding but is not conclusive.

For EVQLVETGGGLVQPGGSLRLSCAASGMSLDEYGISWVRQAPGKGPEWVSVIYADGMRSAYSDKVKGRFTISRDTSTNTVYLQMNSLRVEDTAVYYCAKGEVDEYAYVWGQGTLVTVSS [En_Gibbs], the assay gave nd (0 of 6 replicates). Variant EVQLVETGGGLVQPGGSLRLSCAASGFDLNEYGISWVRQAPGKGPEWVSVIYADGRRTYYIDSVKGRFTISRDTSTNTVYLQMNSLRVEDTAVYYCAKGEIAGTFNVWGQGTLVTVSS [En_HC] gave 730 pM (6 of 6 replicates). With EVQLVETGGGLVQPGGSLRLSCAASGFDLNEYGISWVRQAPGKGPEWVSVIYADGLRTSYADSVKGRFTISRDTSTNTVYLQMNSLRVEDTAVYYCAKGNNAGTFDQWGQGTLVTVSS [En_HC] the result was 1.6 nM (6 of 6 replicates). Variant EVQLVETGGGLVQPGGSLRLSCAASGFQLDEYGISWVRQAPGKGPEWVSVIYADGSRTAYADSVKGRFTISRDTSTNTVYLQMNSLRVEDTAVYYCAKGAYKFSLVVWGQGTLVTVSS [En_Gibbs] gave nd (0 of 6 replicates). Variant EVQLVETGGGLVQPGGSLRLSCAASGFSLDEYGISWVRQAPGKGPEWVSVIYADGMRTAYTQNVKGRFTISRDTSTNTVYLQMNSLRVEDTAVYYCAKGLMQQGRTMWGQGTLVTVSS [En_Gibbs] gave nd (0 of 6 replicates). Variant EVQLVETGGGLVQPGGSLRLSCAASGKDLNEYGISWVRQAPGKGPEWVSVIYADGIRVMYQNQVKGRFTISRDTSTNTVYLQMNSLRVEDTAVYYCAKGNINGSFTFWGQGTLVTVSS [En_Gibbs] showed nd (0 of 6 replicates). For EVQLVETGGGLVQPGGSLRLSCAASGFDLNEYGISWVRQAPGKGPEWVSVIYADGQRTSYADSVKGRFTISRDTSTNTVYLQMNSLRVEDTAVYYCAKGNVAGTFDVWGQGTLVTVSS [En_Gen], the assay gave 1.2 nM (6 of 6 replicates). For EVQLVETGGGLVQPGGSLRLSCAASGFDLNEYGISWVRQAPGKGPEWVSVIYADGVRKAYADSVKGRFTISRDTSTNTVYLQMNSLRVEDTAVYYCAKGENAGTFDVWGQGTLVTVSS [En_Gen], the assay gave 360 pM (6 of 6 replicates). Variant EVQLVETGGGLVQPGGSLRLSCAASGFNLDEYGISWVRQAPGKGPEWVSVIYADGMRTAYSDSVKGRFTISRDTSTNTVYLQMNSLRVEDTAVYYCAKGEVAGTFDIWGQGTLVTVSS [En_Gen] gave 340 pM (6 of 6 replicates).

For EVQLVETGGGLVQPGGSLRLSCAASGEDLDEYGISWVRQAPGKGPEWVSVIYADGRRQYYANNVKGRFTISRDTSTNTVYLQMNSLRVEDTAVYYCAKGDIADVDDLWGQGTLVTVSS [En_Gibbs], the assay gave 33 nM (5 of 6 replicates). Variant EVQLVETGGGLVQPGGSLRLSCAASGFDLDEYGISWVRQAPGKGPEWVSVIYADGRRTAYADSVKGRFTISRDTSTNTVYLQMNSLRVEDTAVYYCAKGETAGTFDLWGQGTLVTVSS [En_Gen] showed 660 pM (6 of 6 replicates). For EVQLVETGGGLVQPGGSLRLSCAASGCTADSYGISWVRQAPGKGPEWVSVITSDGRRTFYGDSVKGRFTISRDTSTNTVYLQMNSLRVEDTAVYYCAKDRAAGTALSWGQGTLVTVSS [Rand], the assay gave 720 nM (1 of 6 replicates). With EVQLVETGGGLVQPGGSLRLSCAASGFDLNEYGISWVRQAPGKGPEWVSVIYADGMRTYYTESVKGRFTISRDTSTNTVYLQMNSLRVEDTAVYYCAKGNFWDQLFVWGQGTLVTVSS [En_Gibbs] the result was 81 nM (1 of 6 replicates). For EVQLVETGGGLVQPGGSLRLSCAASGFQLDEVGISWVRQAPGKGPEWVSVIYADGMRTAYADSFKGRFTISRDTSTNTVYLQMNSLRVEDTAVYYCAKGNKSTIIGIWGQGTLVTVSS [En_Gibbs], the assay gave nd (0 of 6 replicates). Variant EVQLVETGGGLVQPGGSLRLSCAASGFALNEYGISWVRQAPGKGPEWVSVIYADGFRRAYTDKVKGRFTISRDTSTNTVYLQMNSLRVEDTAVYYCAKGVTVGNFSSWGQGTLVTVSS [En_Gibbs] gave 800 nM (1 of 6 replicates). With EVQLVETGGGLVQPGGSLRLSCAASGFDLNEYGISWVRQAPGKGPEWVSVIYADGRRTAYADDVKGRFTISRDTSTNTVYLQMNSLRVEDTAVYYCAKGNNAGTFDQWGQGTLVTVSS [En_Gen] the result was 370 pM (6 of 6 replicates). Variant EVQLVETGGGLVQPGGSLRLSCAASGFDLNEYGISWVRQAPGKGPEWVSVIYADGKRTAYIDSVKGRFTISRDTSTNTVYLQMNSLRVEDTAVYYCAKGGNAGTFDVWGQGTLVTVSS [En_Gen] gave 260 pM (6 of 6 replicates). For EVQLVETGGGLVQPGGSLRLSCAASGFDVLEYGISWVRQAPGKGPEWVSVIYADGRRAAYAKDVKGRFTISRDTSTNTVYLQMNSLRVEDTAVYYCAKGMNGDFIVDWGQGTLVTVSS [En_Gibbs], the assay gave nd (0 of 6 replicates).

Variant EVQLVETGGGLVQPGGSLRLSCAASGFDLNEYGISWVRQAPGKGPEWVSVIYADGMRTAYSDSVKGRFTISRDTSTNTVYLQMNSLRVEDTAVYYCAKGNIAGTFDIWGQGTLVTVSS [En_Gen] showed 540 pM (6 of 6 replicates).

Picked from the list: the 2 lowest averages where every replicate gave a value.

With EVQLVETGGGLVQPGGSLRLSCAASGFDLNEYGISWVRQAPGKGPEWVSVIYADGKRTAYIDSVKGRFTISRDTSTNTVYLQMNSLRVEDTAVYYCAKGGNAGTFDVWGQGTLVTVSS [En_Gen] the result was 260 pM (6 of 6 replicates).
With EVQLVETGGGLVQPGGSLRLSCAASGFNLDEYGISWVRQAPGKGPEWVSVIYADGMRTAYSDSVKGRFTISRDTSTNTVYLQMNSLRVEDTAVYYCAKGEVAGTFDIWGQGTLVTVSS [En_Gen] the result was 340 pM (6 of 6 replicates).

A sequence measured in both rounds can read differently, since the two assays cover different ranges. The authors averaged sequences with at least three values out of six and counted those with two or fewer as poor binders. As a blank, each scFv also met three strains without target: over all heavy chain designs, 1% of these pairings were detected, typically at 120 nM and seldom below 7.0 nM.